{"sequences": {"note": "Sequences of proteins named here, by UniProt entry; tags and fusion partners are left off.", "UniProt P37238, whole entry": "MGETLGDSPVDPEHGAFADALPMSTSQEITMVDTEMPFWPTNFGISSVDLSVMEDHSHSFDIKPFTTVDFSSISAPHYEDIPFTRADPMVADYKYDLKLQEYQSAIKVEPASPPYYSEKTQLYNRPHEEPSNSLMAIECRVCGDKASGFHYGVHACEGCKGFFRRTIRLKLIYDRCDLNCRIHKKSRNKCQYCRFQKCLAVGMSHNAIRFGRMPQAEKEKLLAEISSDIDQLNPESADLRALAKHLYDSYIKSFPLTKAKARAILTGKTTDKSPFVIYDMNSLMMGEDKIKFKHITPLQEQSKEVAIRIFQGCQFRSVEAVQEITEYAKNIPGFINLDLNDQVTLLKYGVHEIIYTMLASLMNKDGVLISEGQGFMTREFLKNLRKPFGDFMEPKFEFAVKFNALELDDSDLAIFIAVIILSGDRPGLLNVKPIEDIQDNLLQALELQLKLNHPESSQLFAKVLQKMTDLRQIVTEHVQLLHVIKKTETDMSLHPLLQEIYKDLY"}, "source": "patent US8349862B2", "about": "“Pyridine derivatives for the treatment of metabolic disorders related to insulin resistance or hyperglycemia” (Piramal Healthcare Limited, priority 2006, dated 2013)", "target": "T1, Mouse PPARγ (Mus musculus, UniProt P37238)", "T1 construct": "endogenous in cells; host or cells: 3T3-L1 fibroblasts", "experiment": "Mouse PPARγ assay (TransAM PPARγ ELISA, 3T3-L1 fibroblasts)", "assay_type": "cell-based", "conditions": "72 hrs, Compound 1 50 μM, Rosiglitazone 10 μM", "method": "The assay was designed as in the reference, Blood, 104(5), 1361-8, 2004, the disclosure of which is incorporated by reference for the teaching of the assay.\n3T3-L1 fibroblasts were seeded in 6-well plates at a density of 4×10^4 cells/well and cultured in DMEM containing 10% calf serum. […] The plates were incubated for 72 hrs at 37° C. in a CO2 incubator with fresh medium containing test substances added after first 48 hrs. After 72 hrs, the medium was removed; the cell layer was washed and processed for the PPARγ assay as per the instruction of the manufacturer (Active Motif, North America, California, USA). PPARγ activation was determined using 96-well ELISA assay as per the instruction manual (TransAM PPARγ. Active Motif, Cat 0.40196)."}
{"molecule": "CN(CCOc1ccc(CC2SC(=O)NC2=O)cc1)c1ccccn1", "note": "(stereo not shown) [Rosiglitazone, reference compound]", "values": [{"measurement": "PPARγ activity (% of rosiglitazone)", "result": "100 % of rosiglitazone"}]}
